Measured values reported in article PMC6458069 (Molecular microbiology, 2019).

Test system: M. tuberculosis JR1740 strain
Assay type: cell-based

O=C1c2ccccc2C(=O)C1c1ccc(Br)cc1 [Bromindione, reference compound]
Fold change knockdown: 1
